From ChEMBL document CHEMBL5131542, “Exploring Degradation of Mutant and Wild-Type Epidermal Growth Factor Receptors Induced by Proteolysis-Targeting Chimeras” (J Med Chem, 2022)
Active and inactive are the calls of the source.

The chains behind the UniProt entries cited, without tags or fusion partners.
UniProt P40337, whole entry, looked up: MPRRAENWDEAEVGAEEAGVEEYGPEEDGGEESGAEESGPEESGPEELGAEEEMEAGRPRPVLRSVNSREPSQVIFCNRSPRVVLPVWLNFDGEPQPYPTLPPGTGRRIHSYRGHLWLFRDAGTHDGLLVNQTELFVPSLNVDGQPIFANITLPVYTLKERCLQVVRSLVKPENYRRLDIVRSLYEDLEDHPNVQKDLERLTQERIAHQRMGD
UniProt Q96SW2, whole entry, looked up, stated change not applied: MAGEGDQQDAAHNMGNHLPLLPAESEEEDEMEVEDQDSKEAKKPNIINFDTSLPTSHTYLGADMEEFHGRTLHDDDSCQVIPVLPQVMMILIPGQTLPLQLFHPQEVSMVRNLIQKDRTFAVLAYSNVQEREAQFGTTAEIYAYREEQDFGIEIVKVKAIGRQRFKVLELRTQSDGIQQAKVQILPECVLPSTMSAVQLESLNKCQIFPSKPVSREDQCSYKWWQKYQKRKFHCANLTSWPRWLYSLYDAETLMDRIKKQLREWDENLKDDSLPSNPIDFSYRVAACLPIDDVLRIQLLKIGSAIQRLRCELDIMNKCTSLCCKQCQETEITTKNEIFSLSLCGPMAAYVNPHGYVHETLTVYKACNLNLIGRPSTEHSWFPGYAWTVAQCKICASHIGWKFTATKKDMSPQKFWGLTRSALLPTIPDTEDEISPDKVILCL

Experiments:
[1] = target: T1, von Hippel-Lindau disease tumor suppressor/Epidermal growth factor receptor (Homo sapiens, UniProt P00533+P40337); test: Binding affinity to VHL/wild type EGFR in human NCI-H1299 cell lysate assessed as ternary complex formation by measuring VHL pulldown at 1 uM pretreated with pictilisib for 2 hrs followed by compound addition measured after 16 hrs by EGFR antibody based co-immunoprecipitation assay; assay type: subcellular
[2] = target: T1, von Hippel-Lindau disease tumor suppressor/Epidermal growth factor receptor; test: PROTAC activity at VHL/wild type EGFR overexpressed in human OVCAR-8 cells assessed as EGFR degradation upto 10000 nM treated after 8 hrs under serum starvation condition and preincubated with pictilisib for 2 hrs measured after 16 hrs of compound addition by Western blotting analysis; assay type: cell-based
[3] = target: T1, von Hippel-Lindau disease tumor suppressor/Epidermal growth factor receptor; test: Binding affinity to VHL/wild type EGFR in human OVCAR-8 cell lysate assessed as ternary complex formation by measuring EGFR pulldown at 1 uM pretreated with pictilisib for 2 hrs followed by compound addition measured after 16 hrs by VHL antibody based co-immunoprecipitation assay; assay type: subcellular
[4] = target: T1, von Hippel-Lindau disease tumor suppressor/Epidermal growth factor receptor; test: PROTAC activity at VHL/wild type EGFR overexpressed in human OVCAR-8 cells assessed as EGFR degradation upto 10000 nM treated after 8 hrs under serum starvation condition and preincubated with 1 to 5 uM pictilisib for 2 hrs measured after 16 hrs of compound addition by Western blotting analysis; assay type: cell-based
[5] = system: von Hippel-Lindau disease tumor suppressor/Epidermal growth factor receptor (Homo sapiens), P00533+P40337 [UNDEFINED MUTATION]; test: Binding affinity to VHL/EGFR mutant in human HCC827 cell lysate assessed as ternary complex formation by measuring EGFR pulldown at 100 nM measured after 16 hrs by VHL antibody based co-immunoprecipitation assay; assay type: subcellular
[6] = target: T1, von Hippel-Lindau disease tumor suppressor/Epidermal growth factor receptor; test: Binding affinity to VHL/wild type EGFR in human OVCAR-8 cell lysate assessed as ternary complex formation by measuring VHL pulldown at 1 uM pretreated with pictilisib for 2 hrs followed by compound addition measured after 16 hrs by EGFR antibody based co-immunoprecipitation assay; assay type: subcellular
[7] = target: T1, von Hippel-Lindau disease tumor suppressor/Epidermal growth factor receptor; test: Binding affinity to VHL/wild type EGFR in human NCI-H1299 cell lysate assessed as ternary complex formation by measuring EGFR pulldown at 1 uM pretreated with pictilisib for 2 hrs followed by compound addition measured after 16 hrs by VHL antibody based co-immunoprecipitation assay; assay type: subcellular
[8] = system: Protein cereblon/Epidermal growth factor receptor (Homo sapiens), P00533+Q96SW2 [UNDEFINED MUTATION]; test: Binding affinity to CRBN/EGFR mutant in human HCC827 cell lysate assessed as ternary complex formation by measuring EGFR pulldown at 100 nM measured after 16 hrs by CRBN antibody based co-immunoprecipitation assay; assay type: subcellular
[9] = target: T2, Protein cereblon/Epidermal growth factor receptor (Homo sapiens) (UniProt P00533+Q96SW2); test: Binding affinity to CRBN/wild type EGFR in human NCI-H1299 cell lysate assessed as ternary complex formation by measuring CRBN pulldown at 1 uM pretreated with pictilisib for 2 hrs followed by compound addition measured after 16 hrs by EGFR antibody based co-immunoprecipitation assay; assay type: subcellular
[10] = target: T2, Protein cereblon/Epidermal growth factor receptor (Homo sapiens); test: Binding affinity to CRBN/wild type EGFR in human NCI-H1299 cell lysate assessed as ternary complex formation by measuring EGFR pulldown at 1 uM pretreated with pictilisib for 2 hrs followed by compound addition measured after 16 hrs by CRBN antibody based co-immunoprecipitation assay; assay type: subcellular
[11] = target: T2, Protein cereblon/Epidermal growth factor receptor (Homo sapiens); test: Binding affinity to CRBN/wild type EGFR in human OVCAR-8 cell lysate assessed as ternary complex formation by measuring CRBN pulldown at 1 uM pretreated with pictilisib for 2 hrs followed by compound addition measured after 16 hrs by EGFR antibody based co-immunoprecipitation assay; assay type: subcellular
[12] = target: T2, Protein cereblon/Epidermal growth factor receptor (Homo sapiens); test: PROTAC activity at CRBN/wild type EGFR overexpressed in human OVCAR-8 cells assessed as EGFR degradation upto 10000 nM treated after 8 hrs under serum starvation condition and preincubated with 1 to 5 uM pictilisib measured for 2 hrs after 16 hrs of compound addition by Western blotting analysis; assay type: cell-based
[13] = target: T2, Protein cereblon/Epidermal growth factor receptor (Homo sapiens); test: Binding affinity to CRBN/wild type EGFR in human OVCAR-8 cell lysate assessed as ternary complex formation by measuring EGFR pulldown at 1 uM pretreated with pictilisib for 2 hrs followed by compound addition measured after 16 hrs by CRBN antibody based co-immunoprecipitation assay; assay type: subcellular

Measured: Activity

COc1cc2ncnc(Nc3ccc(F)c(Cl)c3)c2cc1OCCCN1CCN(C(=O)CCCCCCCCCC(=O)N[C@H](C(=O)N2C[C@H](O)C[C@H]2C(=O)NCc2ccc(-c3scnc3C)cc2)C(C)(C)C)CC1
active: [1] | [2] | [3] | [4] | [5] | [6] | [7]

COc1cc2ncnc(Nc3ccc(F)c(Cl)c3)c2cc1OCCCN1CCN(CCC(=O)NCCCCCCCCOc2cccc3c2C(=O)N(C2CCC(=O)NC2=O)C3)CC1 (stereo not drawn)
active: [8] | [9] | [10] | [11] | [12] | [13]
